Data published in patent US12296011B2, “Methods for photodynamic therapy” (Sun Pharmaceutical Industries, Inc., priority 2018, dated 2025).

Assay: Open-label maximal use pharmacokinetic study, topical ALA under occlusion (first study)
Details: topical to upper extremities compared with intravenous and oral dosing of about 100 mg ALA

Cl.NCC(=O)CCC(=O)O [ALA, 5-amino-4-oxopentanoic acid hydrochloride]
systemic exposure to ALA and PpIX: lower systemic exposure to ALA and PpIX than intravenous and oral dosing
